The values that follow come from patent US20210148907A1.

For this assay, the target named is Flag-tagged full length BCL10 (human) (UniProt O95999). The experiment in a line: cell-based or functional assay.

For “Death-associated protein 3 (DAP3) (from UniProt P51398 22-398)”, the fold activation of NF-κB by transfected BCL10 in DAP-3 knocked-down Jurkat cells stood at 3.5 fold; the fold activation of NF-κB by transfected BCL10 in Jurkat cells in the absence of siDAP-3 worked out at 9.3 fold; the increase of the cytochrome c band in cytosolic fractions of DAP3-depleted against non-depleted HeLa cells transfected with Flag-BCL10 (immunoblot) came to 30%; the percent apoptotic HeLa cells, DAP3 depleted by siDAP3, 0.2 µg Flag-BCL10 construct stood at 25.6%. This substance also returned a percent apoptotic HeLa cells, DAP3 depleted by siDAP3, 1.0 µg Flag-BCL10 construct of 49.3%; a percent dead HeLa cells, transfections lacking the DAP3 silencer, 0.2 µg Flag-BCL10 construct of 17.6%; a percent dead HeLa cells, transfections lacking the DAP3 silencer, 1.0 µg Flag-BCL10 construct of 36.7%.
